Where a name gives a salt, the structure may show the parent alone.
Molecular target: T1, human NMDA receptor GluN1-GluN2C (Homo sapiens, UniProt Q05586+Q14957)
T1 construct: expressed in transfected cells; host or cells: CHO
Assay: FLIPR calcium assay, test item effect on L-glutamate CRC, GluN1-GluN2C-CHO
Type: cell-based
Conditions: with test item 781 nM

Protein sequences, listed by entry. Tags and fused reporters are not part of them. Residues count along the entry.
UniProt Q14957, 20-1233: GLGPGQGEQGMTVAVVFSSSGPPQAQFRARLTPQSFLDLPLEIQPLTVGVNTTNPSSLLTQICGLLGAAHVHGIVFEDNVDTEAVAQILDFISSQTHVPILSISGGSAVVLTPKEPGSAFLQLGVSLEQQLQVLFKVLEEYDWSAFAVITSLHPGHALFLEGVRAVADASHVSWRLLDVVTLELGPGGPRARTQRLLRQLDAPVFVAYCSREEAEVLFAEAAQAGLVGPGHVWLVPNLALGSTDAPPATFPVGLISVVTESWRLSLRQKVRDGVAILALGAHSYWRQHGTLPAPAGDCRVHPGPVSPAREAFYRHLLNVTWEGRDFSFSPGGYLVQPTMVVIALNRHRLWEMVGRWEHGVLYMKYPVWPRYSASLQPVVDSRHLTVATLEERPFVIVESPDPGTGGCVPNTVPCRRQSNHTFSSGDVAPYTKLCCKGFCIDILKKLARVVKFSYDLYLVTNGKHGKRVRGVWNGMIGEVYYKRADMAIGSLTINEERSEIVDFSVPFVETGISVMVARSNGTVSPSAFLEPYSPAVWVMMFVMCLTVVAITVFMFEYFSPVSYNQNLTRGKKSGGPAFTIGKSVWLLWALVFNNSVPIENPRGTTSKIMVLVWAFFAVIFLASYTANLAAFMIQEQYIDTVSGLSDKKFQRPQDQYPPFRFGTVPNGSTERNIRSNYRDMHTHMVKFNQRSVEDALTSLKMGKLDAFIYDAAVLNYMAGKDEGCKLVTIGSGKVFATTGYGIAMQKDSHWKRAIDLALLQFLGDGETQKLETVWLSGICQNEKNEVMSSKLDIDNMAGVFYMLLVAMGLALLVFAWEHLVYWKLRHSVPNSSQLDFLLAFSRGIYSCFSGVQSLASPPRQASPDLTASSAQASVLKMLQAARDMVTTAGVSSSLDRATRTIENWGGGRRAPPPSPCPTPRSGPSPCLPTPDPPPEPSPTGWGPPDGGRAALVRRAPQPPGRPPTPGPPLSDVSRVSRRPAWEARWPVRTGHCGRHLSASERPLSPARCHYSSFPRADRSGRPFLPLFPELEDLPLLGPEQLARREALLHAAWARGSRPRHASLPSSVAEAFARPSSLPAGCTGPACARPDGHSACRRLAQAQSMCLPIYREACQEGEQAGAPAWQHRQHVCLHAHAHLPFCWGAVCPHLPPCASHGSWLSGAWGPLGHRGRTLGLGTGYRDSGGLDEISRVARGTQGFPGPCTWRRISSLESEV

Compound: CC12CC3CC(C)(C1)CC(N)(C3)C2 [Memantine, memantine hydrochloride]
- L-glutamate CRC LogEC50: −6.6

— patent US20230017786A1 (priority 2020, published 2023)
